Experiments:
[1] = tested on: human lung cancer grafted into NUDE (LX1) mice; assay: Antitumor activity on a human lung cancer grafted into NUDE (LX1) mice; conditions: 0.70 mg/kg i.p. at D0, D3, D6 and D9
[2] = tested on: P 388 leukemia; assay: Antitumor activity against P 388 leukemia in mice; format: in vivo; conditions: for SURVIVORS 30 days: B6D2F1 mice; for SURVIVORS 30 days / SURVIVORS 60 days: n=6; for SURVIVORS 60 days: survivors at 60 days = long-term remission; for T/C % (mean survival time test group over untreated control group): values above 125% signify antitumor activity
[3] = tested on: L1210 cells; assay: In vitro cytotoxicity, Microculture Tetrazolium Assay; format: cell-based; conditions: read-out: IC50 (concentration which 50% inhibits the proliferation of the control cells), 48 hours incubation

## CCOP(=O)(OCC)C(NC(=O)[C@@]1(O)[C@H](O)[C@]2(CC)C=CCN3CC[C@@]4(c5cc([C@@]6(C(=O)OC)C[C@@H]7C=C(CC)CN(Cc8c6[nH]c6ccccc86)C7)c(OC)cc5N(C)[C@@H]14)[C@@H]32)C(C)C (single isomer, unassigned)
[1]
  T/C (tumor volume treated animals/tumor volume control animals): 21
[1]; tumor 5 mm x 5 mm at start
  SGD (Standard Growth Delay): 3.1

## CCOP(=O)(OCC)C(NC(=O)[C@@]1(O)[C@H](O)[C@]2(CC)C=CCN3CC[C@@]4(c5cc([C@@]6(C(=O)OC)C[C@@H]7CN(CCc8c6[nH]c6ccccc86)C[C@](O)(CC)C7)c(OC)cc5N(C)[C@@H]14)[C@@H]32)C(C)C (single isomer, unassigned)
[2]; 0.2 mg/kg i.p. one day after inoculation of 10^6 leukemic cells
  SURVIVORS 30 days: 5/6
[2]; 0.2 mg/kg i.p. one day after inoculation
  SURVIVORS 60 days: 5/6
[2]; 0.2 mg/kg i.p.
  T/C % (mean survival time test group over untreated control group): 405%

## CCOP(=O)(OCC)C(NC(=O)[C@@]1(O)[C@H](O)[C@]2(CC)C=CCN3CC[C@@]4(c5cc([C@@]6(C(=O)OC)C[C@@H]7CN(CCc8c6[nH]c6ccccc86)C[C@](O)(CC)C7)c(OC)cc5N(C=O)[C@@H]14)[C@@H]32)C(C)C (single isomer, unassigned)
[3]
  IC50: 0.35 nM
[2]; 0.1 mg/kg i.p. one day after inoculation of 10^6 leukemic cells
  SURVIVORS 30 days: 6/6
[2]; 0.1 mg/kg i.p. one day after inoculation
  SURVIVORS 60 days: 6/6
[2]; 0.1 mg/kg i.p.
  T/C % (mean survival time test group over untreated control group): > 550%
[2]; dose twice as small as that of NDVAMPP
  curative effect in P 388 mice (in words): curative for all the mice

Source: US5100881A (priority 1989, dated 1992)
